Test results published in US20260384450A1, “MACROCYCLIC AMINOPYRIDINE COMPOUNDS AS EGFR INHIBITORS” (published 2026).
Where two headings read alike, the source gives them in different places.

Chains of the proteins cited; added tags and fusions are not shown. Lines headed by an entry give the natural chain unless they say otherwise; changes in a name come on top. A line that says so, or that is headed by a name, gives the form on record, which may keep a tag or linker. Residues count along the entry.
UniProt P00533, 25-1210 limits assumed: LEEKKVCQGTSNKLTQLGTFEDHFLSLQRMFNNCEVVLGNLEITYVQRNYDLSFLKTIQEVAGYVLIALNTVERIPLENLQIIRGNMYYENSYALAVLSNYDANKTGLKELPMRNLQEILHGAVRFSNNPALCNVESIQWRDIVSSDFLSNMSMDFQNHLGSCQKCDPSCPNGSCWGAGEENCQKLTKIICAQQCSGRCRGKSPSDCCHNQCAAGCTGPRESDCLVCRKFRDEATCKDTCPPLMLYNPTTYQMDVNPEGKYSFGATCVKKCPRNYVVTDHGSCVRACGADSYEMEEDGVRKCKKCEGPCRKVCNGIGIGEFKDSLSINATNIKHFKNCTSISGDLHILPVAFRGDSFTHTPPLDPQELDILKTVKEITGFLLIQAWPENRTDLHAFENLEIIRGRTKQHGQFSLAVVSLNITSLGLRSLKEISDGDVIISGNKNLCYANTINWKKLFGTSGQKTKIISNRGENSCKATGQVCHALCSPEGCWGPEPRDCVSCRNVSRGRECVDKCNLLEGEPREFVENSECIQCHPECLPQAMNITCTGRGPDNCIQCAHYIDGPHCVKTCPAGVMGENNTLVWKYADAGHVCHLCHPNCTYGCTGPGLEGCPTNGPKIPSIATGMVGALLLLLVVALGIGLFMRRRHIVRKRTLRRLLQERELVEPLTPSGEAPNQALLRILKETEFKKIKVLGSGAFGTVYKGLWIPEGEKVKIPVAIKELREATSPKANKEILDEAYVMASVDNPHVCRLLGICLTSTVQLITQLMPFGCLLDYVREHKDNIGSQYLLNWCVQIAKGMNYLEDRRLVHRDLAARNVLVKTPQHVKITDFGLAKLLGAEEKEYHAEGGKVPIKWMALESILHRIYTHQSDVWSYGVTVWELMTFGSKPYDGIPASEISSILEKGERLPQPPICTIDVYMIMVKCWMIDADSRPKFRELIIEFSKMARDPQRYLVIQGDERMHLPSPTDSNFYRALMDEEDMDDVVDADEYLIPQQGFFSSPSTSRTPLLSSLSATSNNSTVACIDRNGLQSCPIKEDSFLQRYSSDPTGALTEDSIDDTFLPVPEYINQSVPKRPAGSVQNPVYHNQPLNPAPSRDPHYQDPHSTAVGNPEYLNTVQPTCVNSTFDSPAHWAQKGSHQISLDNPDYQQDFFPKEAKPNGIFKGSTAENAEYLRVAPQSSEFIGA
UniProt P00533, 25-1210 C797S/L858R limits assumed: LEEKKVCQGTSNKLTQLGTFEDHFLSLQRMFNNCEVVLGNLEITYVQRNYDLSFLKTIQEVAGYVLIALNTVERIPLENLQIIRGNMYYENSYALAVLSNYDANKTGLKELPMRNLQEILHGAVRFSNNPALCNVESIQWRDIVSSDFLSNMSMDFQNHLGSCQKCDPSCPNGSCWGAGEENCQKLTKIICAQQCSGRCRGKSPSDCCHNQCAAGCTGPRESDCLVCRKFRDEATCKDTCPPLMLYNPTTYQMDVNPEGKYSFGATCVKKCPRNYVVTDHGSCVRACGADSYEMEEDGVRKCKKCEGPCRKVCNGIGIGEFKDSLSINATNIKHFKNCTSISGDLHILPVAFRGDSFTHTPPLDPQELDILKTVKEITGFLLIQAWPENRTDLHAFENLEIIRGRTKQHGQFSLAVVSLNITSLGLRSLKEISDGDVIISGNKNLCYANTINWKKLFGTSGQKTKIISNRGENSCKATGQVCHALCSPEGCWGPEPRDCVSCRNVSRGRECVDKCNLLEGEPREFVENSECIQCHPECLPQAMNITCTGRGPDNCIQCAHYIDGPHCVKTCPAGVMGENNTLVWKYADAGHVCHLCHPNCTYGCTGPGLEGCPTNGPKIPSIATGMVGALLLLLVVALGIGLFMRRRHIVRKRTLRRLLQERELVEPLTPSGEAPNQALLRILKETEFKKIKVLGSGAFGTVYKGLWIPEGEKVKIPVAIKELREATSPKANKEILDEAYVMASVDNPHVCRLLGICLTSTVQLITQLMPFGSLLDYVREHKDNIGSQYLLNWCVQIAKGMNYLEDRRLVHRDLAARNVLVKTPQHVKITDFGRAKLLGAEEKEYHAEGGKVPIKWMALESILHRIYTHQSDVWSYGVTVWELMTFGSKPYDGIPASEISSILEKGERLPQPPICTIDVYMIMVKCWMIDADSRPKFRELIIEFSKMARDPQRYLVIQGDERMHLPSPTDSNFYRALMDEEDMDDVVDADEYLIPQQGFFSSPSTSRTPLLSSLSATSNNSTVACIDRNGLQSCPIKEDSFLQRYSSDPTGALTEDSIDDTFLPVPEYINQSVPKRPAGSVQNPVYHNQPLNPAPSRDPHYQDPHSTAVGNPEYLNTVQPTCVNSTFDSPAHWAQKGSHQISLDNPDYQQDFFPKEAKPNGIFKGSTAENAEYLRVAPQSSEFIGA
UniProt P00533, 25-1210 T790M/C797S/L858R limits assumed: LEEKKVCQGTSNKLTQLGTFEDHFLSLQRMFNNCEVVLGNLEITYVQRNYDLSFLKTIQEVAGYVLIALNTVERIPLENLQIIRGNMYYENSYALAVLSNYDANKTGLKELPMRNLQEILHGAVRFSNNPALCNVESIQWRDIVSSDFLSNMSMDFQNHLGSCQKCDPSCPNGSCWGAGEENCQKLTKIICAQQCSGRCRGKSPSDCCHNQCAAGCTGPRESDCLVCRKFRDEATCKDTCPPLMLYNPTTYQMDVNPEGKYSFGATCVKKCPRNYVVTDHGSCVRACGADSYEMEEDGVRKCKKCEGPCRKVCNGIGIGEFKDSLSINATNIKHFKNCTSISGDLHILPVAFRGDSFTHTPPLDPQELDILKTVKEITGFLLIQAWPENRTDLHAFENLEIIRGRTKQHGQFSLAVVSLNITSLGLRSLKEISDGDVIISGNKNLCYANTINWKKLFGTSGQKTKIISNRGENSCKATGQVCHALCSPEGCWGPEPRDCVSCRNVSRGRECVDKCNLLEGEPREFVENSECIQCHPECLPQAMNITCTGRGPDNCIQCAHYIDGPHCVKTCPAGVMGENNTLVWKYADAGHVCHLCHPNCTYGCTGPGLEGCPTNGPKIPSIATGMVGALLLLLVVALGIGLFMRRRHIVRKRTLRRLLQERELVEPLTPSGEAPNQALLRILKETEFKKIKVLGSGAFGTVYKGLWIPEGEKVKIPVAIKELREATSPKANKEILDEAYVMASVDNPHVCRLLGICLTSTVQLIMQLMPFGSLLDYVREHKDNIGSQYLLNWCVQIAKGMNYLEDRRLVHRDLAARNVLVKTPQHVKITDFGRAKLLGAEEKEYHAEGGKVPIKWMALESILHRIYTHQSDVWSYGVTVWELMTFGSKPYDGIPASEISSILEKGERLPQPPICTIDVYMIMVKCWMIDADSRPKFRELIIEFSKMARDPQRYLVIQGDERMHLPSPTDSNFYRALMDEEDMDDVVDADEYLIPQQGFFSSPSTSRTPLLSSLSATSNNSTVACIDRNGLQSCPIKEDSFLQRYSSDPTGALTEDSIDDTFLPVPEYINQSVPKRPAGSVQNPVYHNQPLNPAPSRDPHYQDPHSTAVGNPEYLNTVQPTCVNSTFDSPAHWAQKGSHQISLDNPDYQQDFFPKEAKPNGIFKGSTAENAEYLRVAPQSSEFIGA
UniProt P00533, with tags, fused parts or gaps DEL746-750/C797S limits assumed: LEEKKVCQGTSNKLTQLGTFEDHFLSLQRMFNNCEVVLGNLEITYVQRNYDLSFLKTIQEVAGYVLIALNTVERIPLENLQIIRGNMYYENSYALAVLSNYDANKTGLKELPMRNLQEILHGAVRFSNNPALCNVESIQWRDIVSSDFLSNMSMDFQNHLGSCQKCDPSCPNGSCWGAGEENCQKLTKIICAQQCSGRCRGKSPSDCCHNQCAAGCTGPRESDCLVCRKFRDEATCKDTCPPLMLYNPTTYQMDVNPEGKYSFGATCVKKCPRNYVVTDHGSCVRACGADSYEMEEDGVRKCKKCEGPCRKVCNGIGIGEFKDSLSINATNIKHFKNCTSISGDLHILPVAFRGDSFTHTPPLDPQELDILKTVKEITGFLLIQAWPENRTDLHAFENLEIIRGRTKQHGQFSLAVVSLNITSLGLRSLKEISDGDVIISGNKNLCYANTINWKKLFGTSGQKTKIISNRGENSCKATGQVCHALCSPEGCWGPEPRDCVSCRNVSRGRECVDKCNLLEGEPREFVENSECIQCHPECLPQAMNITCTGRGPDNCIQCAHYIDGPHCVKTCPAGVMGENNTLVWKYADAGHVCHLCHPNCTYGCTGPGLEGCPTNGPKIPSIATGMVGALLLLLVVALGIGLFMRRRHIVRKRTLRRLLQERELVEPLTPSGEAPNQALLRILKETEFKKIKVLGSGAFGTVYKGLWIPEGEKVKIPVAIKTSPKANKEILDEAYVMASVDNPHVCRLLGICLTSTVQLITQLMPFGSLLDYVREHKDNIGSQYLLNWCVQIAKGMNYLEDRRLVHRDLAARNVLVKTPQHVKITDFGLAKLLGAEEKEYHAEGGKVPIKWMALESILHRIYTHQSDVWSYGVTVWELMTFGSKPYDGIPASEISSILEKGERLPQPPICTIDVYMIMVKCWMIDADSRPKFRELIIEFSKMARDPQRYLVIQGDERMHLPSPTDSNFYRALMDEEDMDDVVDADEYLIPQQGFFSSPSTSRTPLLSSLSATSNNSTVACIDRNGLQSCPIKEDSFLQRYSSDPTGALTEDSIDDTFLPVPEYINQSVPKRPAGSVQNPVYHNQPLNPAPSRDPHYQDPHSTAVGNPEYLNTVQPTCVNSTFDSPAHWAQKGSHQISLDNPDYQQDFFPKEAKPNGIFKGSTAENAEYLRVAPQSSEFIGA
UniProt P00533, with tags, fused parts or gaps DEL746-750/T790M/C797S limits assumed: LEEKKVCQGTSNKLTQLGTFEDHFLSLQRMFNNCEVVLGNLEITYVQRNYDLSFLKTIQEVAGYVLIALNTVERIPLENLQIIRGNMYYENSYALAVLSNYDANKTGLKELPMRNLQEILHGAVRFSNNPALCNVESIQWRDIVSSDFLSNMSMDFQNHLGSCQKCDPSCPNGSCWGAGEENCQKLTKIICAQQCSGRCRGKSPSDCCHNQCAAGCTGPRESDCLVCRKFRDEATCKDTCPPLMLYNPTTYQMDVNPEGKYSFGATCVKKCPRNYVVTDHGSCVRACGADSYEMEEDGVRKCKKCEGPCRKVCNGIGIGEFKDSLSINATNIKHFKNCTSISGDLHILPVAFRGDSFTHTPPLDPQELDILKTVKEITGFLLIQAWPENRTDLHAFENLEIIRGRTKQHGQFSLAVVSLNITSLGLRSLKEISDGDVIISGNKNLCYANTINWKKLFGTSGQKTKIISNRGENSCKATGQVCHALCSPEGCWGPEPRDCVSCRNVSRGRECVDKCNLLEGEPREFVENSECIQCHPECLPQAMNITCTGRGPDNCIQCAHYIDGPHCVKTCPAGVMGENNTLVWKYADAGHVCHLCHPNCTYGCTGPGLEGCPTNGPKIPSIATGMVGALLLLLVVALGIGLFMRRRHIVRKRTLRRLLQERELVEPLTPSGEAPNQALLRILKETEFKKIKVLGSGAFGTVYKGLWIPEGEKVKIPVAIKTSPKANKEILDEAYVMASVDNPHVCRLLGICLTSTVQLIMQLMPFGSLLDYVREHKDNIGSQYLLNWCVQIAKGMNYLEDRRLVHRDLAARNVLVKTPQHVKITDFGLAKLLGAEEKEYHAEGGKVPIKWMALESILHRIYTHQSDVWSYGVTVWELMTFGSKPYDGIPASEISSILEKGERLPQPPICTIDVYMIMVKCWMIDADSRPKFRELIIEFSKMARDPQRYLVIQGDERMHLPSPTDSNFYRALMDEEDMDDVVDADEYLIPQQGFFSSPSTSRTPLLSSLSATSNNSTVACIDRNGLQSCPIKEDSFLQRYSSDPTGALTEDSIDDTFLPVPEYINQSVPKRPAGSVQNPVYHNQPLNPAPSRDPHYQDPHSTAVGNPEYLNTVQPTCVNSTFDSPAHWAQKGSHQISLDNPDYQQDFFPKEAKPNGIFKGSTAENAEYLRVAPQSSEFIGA

Assays:
[1] = target: EGFR D19TMCS (del19/T790M/C797S) (Homo sapiens, UniProt P00533, C797S/DEL746-750/T790M); test: Biochemical EGFR kinase assay (Lance Ultra TR-FRET), triple mutant del19/T790M/C797S
[2] = target: EGFR LRTMCS (L858R/T790M/C797S) (Homo sapiens, UniProt P00533, C797S/L858R/T790M); test: Biochemical EGFR kinase assay (Lance Ultra TR-FRET), triple mutant L858R/T790M/C797S
EGFR D19CS (del19/C797S) = EGFR D19CS (del19/C797S) (Homo sapiens, UniProt P00533, C797S/DEL746-750); test: Biochemical EGFR kinase assay (Lance Ultra TR-FRET), double mutant del19/C797S
EGFR LRCS (L858R/C797S) = EGFR LRCS (L858R/C797S) (Homo sapiens, UniProt P00533, C797S/L858R); test: Biochemical EGFR kinase assay (Lance Ultra TR-FRET), double mutant L858R/C797S
EGFR WT = EGFR WT (Homo sapiens, UniProt P00533); test: Biochemical EGFR kinase assay (Lance Ultra TR-FRET), wildtype
[3] = read-out: IC50, EGFR D19TMCS, Km, ATP at Km, EGFR del19/T790M/C797S
[4] = read-out: IC50, EGFR LRTMCS, 1 mM, ATP 1 mM, EGFR L858R/T790M/C797S
[5] = read-out: IC50, EGFR LRTMCS, Km, ATP at Km, EGFR L858R/T790M/C797S
[6] = read-out: IC50, EGFR-D19CS, 1 mM, ATP 1 mM, EGFR del19/C797S
[7] = read-out: IC50, EGFR-D19CS, Km, ATP at Km, EGFR del19/C797S
[8] = read-out: IC50, EGFR-LRCS, 1 mM, ATP 1 mM, EGFR L858R/C797S
[9] = read-out: IC50, EGFR-LRCS, Km, ATP at Km, EGFR L858R/C797S
[10] = read-out: IC50, EGFR WT, 1 mM, ATP 1 mM, EGFR wildtype
[11] = read-out: IC50, EGFR WT, Km, ATP at Km, EGFR wildtype
[12] = read-out: EGFR D19TMCS IC50, ATP 1 mM
[13] = read-out: EGFR D19TMCS IC50, ATP Km
[14] = read-out: EGFR LRTMCS IC50, ATP 1 mM
[15] = read-out: EGFR LRTMCS IC50, ATP Km
[16] = read-out: EGFR D19CS IC50, ATP 1 mM
[17] = read-out: EGFR D19CS IC50, ATP Km
[18] = read-out: EGFR LRCS IC50, ATP 1 mM
[19] = read-out: EGFR LRCS IC50, ATP Km
[20] = read-out: EGFR WT IC50, ATP 1 mM

Row | Compound | IC50 [1, 3] [nM] | IC50 [2, 4] [nM] | IC50 [2, 5] [nM] | IC50 (EGFR D19CS (del19/C797S); [6]) [nM] | IC50 (EGFR D19CS (del19/C797S); [7]) [nM] | IC50 (EGFR LRCS (L858R/C797S); [8]) [nM] | IC50 (EGFR LRCS (L858R/C797S); [9]) [nM] | IC50 (EGFR WT; [10]) [nM] | IC50 (EGFR WT; [11]) [nM] | IC50 [1, 12] [nM] | IC50 [1, 13] [nM] | IC50 [2, 14] [nM] | IC50 [2, 15] [nM] | IC50 (EGFR D19CS (del19/C797S); [16]) [nM] | IC50 (EGFR D19CS (del19/C797S); [17]) [nM] | IC50 (EGFR LRCS (L858R/C797S); [18]) [nM] | IC50 (EGFR LRCS (L858R/C797S); [19]) [nM] | IC50 (EGFR WT; [20]) [nM] | IC50 (EGFR WT; read-out: EGFR WT IC50, ATP Km) [nM]
1 | Cc1nn(C)c2c1-c1nccc(n1)Nc1cc(c(-c3ncc(CN4CCC[C@@H](O)C4)cc3F)cn1)N[C@@H](C)CCO2 | < 10 | < 10 | < 10 | 10 to 100 | < 10 | 10 to 100 | < 10 | > 1000 | 10 to 100 | – | – | – | – | – | – | – | – | – | –
2 | Cn1ncc2c1OC[C@@H](F)CNc1cc(ncc1-c1ccc(OC(F)F)cn1)Nc1ccnc-2n1 | – | – | – | – | – | – | – | – | – | 10 to 100 | < 10 | 100 to 1000 | < 10 | > 1000 | > 1000 | > 1000 | 100 to 1000 | > 1000 | > 1000
3 | C[C@H]1CCOc2c(cnn2C)-c2nccc(n2)Nc2cc(c(-c3ncccc3OCC(F)(F)F)cn2)N1 | – | – | – | – | – | – | – | – | – | 100 to 1000 | 10 to 100 | 100 to 1000 | 10 to 100 | > 1000 | > 1000 | > 1000 | 100 to 1000 | > 1000 | > 1000
4 | C[C@@H]1CCOc2c(cnn2C)-c2nccc(n2)Nc2cc(c(-c3csc(C(F)(F)F)n3)cn2)N1 | – | – | – | – | – | – | – | – | – | > 1000 | 10 to 100 | > 1000 | 10 to 100 | > 1000 | > 1000 | > 1000 | > 1000 | > 1000 | > 1000
5 | Cc1nn(C)c2c1-c1nccc(n1)Nc1cc(c(-c3ccc(S(C)(=O)=O)cn3)cn1)NCC[C@@H](C)O2 | < 10 | < 10 | < 10 | < 10 | < 10 | < 10 | < 10 | > 1000 | < 10 | – | – | – | – | – | – | – | – | – | –
6 | C[C@H]1CCOc2c(cnn2C)-c2nccc(n2)Nc2cc(c(-c3ncc(CN4CC(CC(F)F)C4)cc3F)cn2)N1 | – | – | – | – | – | – | – | – | – | < 10 | < 10 | < 10 | < 10 | < 10 | < 10 | 10 to 100 | < 10 | > 1000 | 10 to 100
7 | Cc1nn(C)c2c1-c1nccc(n1)Nc1cc(c(-c3ccc(C(F)F)cn3)cn1)N[C@@H](C)CCO2 | – | – | – | – | – | – | – | – | – | < 10 | < 10 | 100 to 1000 | < 10 | 100 to 1000 | 10 to 100 | > 1000 | 10 to 100 | > 1000 | > 1000
8 | Cc1nn(C)c2c1-c1nccc(n1)Nc1cc(c(-c3cnc(S(C)(=O)=O)cn3)cn1)N[C@@H](C)CCO2 | < 10 | 10 to 100 | < 10 | 100 to 1000 | 10 to 100 | > 1000 | < 10 | > 1000 | 100 to 1000 | – | – | – | – | – | – | – | – | – | –
9 | C[C@@H]1CCOc2c(cnn2C)-c2nccc(n2)Nc2cc(c(-c3ccn(C(F)F)n3)cn2)N1 | – | – | – | – | – | – | – | – | – | < 10 | < 10 | < 10 | < 10 | 10 to 100 | < 10 | 100 to 1000 | < 10 | > 1000 | 10 to 100
10 | Cc1nn(C)c2c1-c1nccc(n1)Nc1cc(c(-c3ncc(CN4CCN(C)CC4)cc3F)cn1)NCC[C@H](C)O2 | – | – | – | – | – | – | – | – | – | < 10 | < 10 | < 10 | < 10 | < 10 | < 10 | < 10 | < 10 | > 1000 | < 10
11 | Cc1nn(C)c2c1-c1nccc(n1)Nc1cc(c(-c3ncc(C(C)(C)O)cn3)cn1)NCC[C@H](C)O2 | < 10 | < 10 | < 10 | 10 to 100 | < 10 | 10 to 100 | < 10 | > 1000 | 10 to 100 | – | – | – | – | – | – | – | – | – | –
12 | Cc1nn(C)c2c1-c1nccc(n1)Nc1cc(c(-c3ncc(CN4CCN(C)CC4)cc3F)cn1)N[C@@H](C)CCO2 | – | – | – | – | – | – | – | – | – | < 10 | < 10 | < 10 | < 10 | < 10 | < 10 | < 10 | < 10 | > 1000 | < 10
13 | Cn1ncc2c1OCCNc1cc(ncc1-c1ccn(C(F)F)n1)Nc1ccnc-2n1 | – | – | – | – | – | – | – | – | – | > 1000 | 100 to 1000 | > 1000 | < 10 | > 1000 | > 1000 | > 1000 | > 1000 | > 1000 | > 1000
14 | C[C@H]1CCOc2c(cnn2C)-c2nccc(n2)Nc2cc(c(-c3ccn(C(F)F)n3)nn2)N1 | – | – | – | – | – | – | – | – | – | < 10 | < 10 | 10 to 100 | < 10 | > 1000 | > 1000 | > 1000 | 100 to 1000 | > 1000 | > 1000
15 | Cc1nn(C)c2c1-c1nccc(n1)Nc1cc(c(-c3ncc(C(C)(C)O)cc3F)cn1)NCC[C@@H](C)O2 | < 10 | < 10 | < 10 | 10 to 100 | < 10 | 10 to 100 | < 10 | > 1000 | 10 to 100 | – | – | – | – | – | – | – | – | – | –
16 | CC1CNc2cc(ncc2-c2ccn(C(F)F)n2)Nc2ccnc(n2)-c2cnn(C)c2OC1 (centres unmarked) | – | – | – | – | – | – | – | – | – | < 10 | < 10 | < 10 | < 10 | 100 to 1000 | 10 to 100 | 100 to 1000 | < 10 | > 1000 | 10 to 100
17 | Cc1nn(C)c2c1-c1nccc(n1)Nc1cc(c(-c3ncc(CN4CC[C@@H](O)C4)cc3F)cn1)N[C@@H](C)CCO2 | < 10 | < 10 | < 10 | 10 to 100 | < 10 | 10 to 100 | < 10 | > 1000 | 10 to 100 | – | – | – | – | – | – | – | – | – | –
18 | Cc1nn(C)c2c1-c1nccc(n1)Nc1cc(c(-c3cnc(CN4CC5(COC5)C4)cn3)cn1)N[C@@H](C)CCO2 | < 10 | < 10 | < 10 | < 10 | < 10 | < 10 | < 10 | > 1000 | < 10 | – | – | – | – | – | – | – | – | – | –
19 | C[C@H]1CCOc2c(cnn2C)-c2nccc(n2)Nc2cc(c(-c3ncc(CN4CC5(C4)CC5(F)F)cc3F)cn2)N1 | – | – | – | – | – | – | – | – | – | < 10 | < 10 | < 10 | < 10 | 10 to 100 | < 10 | 100 to 1000 | < 10 | > 1000 | 10 to 100
20 | C[C@H]1CCOc2c(cnn2C)-c2nccc(n2)Nc2cc(c(-c3ncc(CN4CCN(C)CC4)cc3F)cn2)N1 | – | – | – | – | – | – | – | – | – | < 10 | < 10 | < 10 | < 10 | < 10 | < 10 | < 10 | < 10 | > 1000 | < 10
21 | Cc1nn(C)c2c1-c1nccc(n1)Nc1cc(c(-c3ncc(C(C)(C)F)cn3)cn1)NCC[C@H](C)O2 | – | – | – | – | – | – | – | – | – | < 10 | < 10 | < 10 | < 10 | 10 to 100 | < 10 | 100 to 1000 | < 10 | > 1000 | 10 to 100
